Literature values, collected in patent US7767232B2, “Control of nitric oxide bioactivity by perfluorocarbons” (New York University, priority 2002, dated 2010).

Settings: Nedospasov et al., 2000; cited from earlier work

With “serum albumin: most abundant transport and depot protein in the circulation” as the substance, how does the “partition coefficient QNO” value read?
The value was ~120.
